Tested on: PR immunoreactive cells in the hippocampus
Test: Murine brain PR ICC assay, hippocampus (PR regulated exclusively by ERα)
Type: in vivo, mouse
Conditions: 0.2 mg/kg, 3 days; wild type and βERKO mice
Experimental: FIG. 1: Progesterone receptor (PR) protein in the dorsal raphe nucleus of wild type and estrogen receptor beta knockout (βERKO) mice following treatment with 17β-estradiol (E2, 0.2 mg/kg), Δ5-androstene-3β, 17β-diol (A, 5 or 10 mg/kg) or vehicle (sesame oil). Animals (n=5/group) were treated for 3 days and brains and uteri were collected 24 hours after the last treatment and processed for immunohistochemistry. While both ERα and ERβ are expressed in the dorsal raphe nucleus, ERβ is more abundant and induction of PR by E2 in this brain region is primarily regulated by ERβ.
Female mice (12-16 wks of age) are ovariectomized by the vendor (C57BL/6s from Charles River) and shipped one week later. Animals are fed a soy-free rodent chow upon arrival at the Merck animal facility, where they are given an additional week to adjust to the new environment. […]
Free floating 40 μm sections are washed in cold 0.1 M phosphate buffered saline (PBS), pH 7.4, to thoroughly remove cryoprotectant. […] Three antibodies have been used, both of which recognize the two PR isoforms: 1) rabbit polyclonal [DAKO, 1:2500]; 2) mouse monoclonal [Affinity Bioreagents, 1:700]; 3) rabbit monoclonal [Lab Vision, SP2 clone “ready to use” diluted to 1:400]; we are currently using the SP2. […]

C[C@]12CC[C@@H]3c4ccc(O)cc4CC[C@H]3[C@@H]1CC[C@@H]2O [E2, 17β-estradiol, reference compound]
PR immunoreactive cells in the hippocampus: robust expression

Source: US20080032959A1, “Estrogen Receptor Modulators” (priority 2004, published 2008)
